Source: PubChem BioAssay AID802 (Columbia University Molecular Screening Center, 2007)
This is a selection; strong and weak results do not stand in their true shares. Activity calls are given as the source filed them.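 The calls were made as follows: active = inhibition above the batch mean plus 3 SD, with images confirmed as a hit by eye (cut at about 37% in these data); inconclusive = inhibition above that limit but hit not confirmed in images; inactive = inhibition not above that limit.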

Assay: blockers of endothelial VCAM-1 upregulation by TNFa – imaging, HUVEC, TNFa stimulus, immunofluorescence, primary screen (AID 802);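 also: 0% = TNF-stimulated DMSO wells and 100% = unstimulated control wells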
Settings: HUVEC TNFa-induced VCAM-1 immunofluorescence, high-content imaging; at 2 µM; hits give high values
For CCC(C)N(CC(C)C)C(=S)SC(NC(C)=O)C(Cl)(Cl)Cl (stereo not drawn), the inhibition was inactive: 11.9%. In the case of O=C(COc1ccccc1)OC1CN2CCC1CC2 (stereo not drawn), the inhibition is reported as inactive: 15.6%. In the case of COP1(=S)c2c(C)nn(CCC#N)c2N=C(c2ccc(F)cc2)N1C (stereo not drawn), the inhibition is reported as inactive: 2.9%. In the case of CCN(CC)C(=S)SC(NC=O)C(Cl)(Cl)Cl (stereo not drawn), the inhibition is reported as inactive: 4%. For ClCCSc1nnc(-c2cccnc2)o1, the inhibition was inactive: 2.2%. With O=C(OC1CN2CCC1CC2)C12CC3CC(CC(C3)C1)C2 (stereo not drawn) the inhibition was inactive: -4.6%. In the case of Cc1cccc(OCC(=O)OC2CN3CCC2CC3)c1 (stereo not drawn), the inhibition is reported as inactive: 3.9%. For O=[N+]([O-])c1ccc2c(c1)nnn2O, the inhibition was inactive: 3.1%. With CCOP1(=S)c2c(C)nn(CCC#N)c2N=C(c2ccc(F)cc2)N1C (stereo not drawn) the inhibition was inactive: -4.1%. In the case of CCOP1(=S)c2c(C)nn(CCC#N)c2N=C(c2ccccc2F)N1C (stereo not drawn), the inhibition is reported as inactive: 2%. With Cc1ccc(OCC(=O)OC2CN3CCC2CC3)cc1 (stereo not drawn) the inhibition was inactive: 24.2%. With O=P1(Nc2ccc(Br)cn2)COc2ccccc2OC1 the inhibition was inactive: -2.8%. In the case of O=P1(Nc2ncccn2)COc2ccccc2OC1, the inhibition is reported as inactive: 1.1%. For Cc1nn(-c2ccccc2)c2c1P(=O)(N1CCOCC1)N(C)C(c1ccccc1)=N2 (stereo not drawn), the inhibition was inactive: 9.3%. For CC1(CBr)Cn2c(nc3ccccc3c2=O)S1 (stereo not drawn), the inhibition was inactive: -13.5%. For Clc1n[nH]nc1-c1nn[nH][15n]1, the inhibition was inactive: 4.3%. For O=P1(Nc2ccccn2)COc2ccccc2OC1, the inhibition was inactive: 6%. In the case of c1nnnn1CCn1cnnn1, the inhibition is reported as inactive: 12.7%. In the case of O=P(Nc1nccs1)(c1ccccc1)c1ccccc1, the inhibition is reported as active: 92.6%. In the case of O=C(OC1CN2CCC1CC2)c1cccc(Cl)c1 (stereo not drawn), the inhibition is reported as inactive: -6.6%. For COC(=O)c1cc2c(s1)N=C(c1ccccc1)N(C)P2(=O)N1CCOCC1 (stereo not drawn), the inhibition was inactive: 7.3%. For CCC(=O)N1C2C3N(C(=O)CC)C1C1N(C(=O)CC)C(C(N1C(=O)CC)N3C(=O)CC)N2C(=O)CC, the inhibition was inactive: -4.1%. For CCOC(=O)NC(Sc1ccccc1)C(Cl)(Cl)Cl (stereo not drawn), the inhibition was inactive: -1.3%. With O=P1(Nc2nc3ccc(Cl)cc3s2)COc2ccccc2O1 (stereo not drawn) the inhibition was inactive: -6.8%. In the case of CC(C)CC(=O)NC(Sc1ccc(Cl)cc1)C(Cl)(Cl)Cl (stereo not drawn), the inhibition is reported as inactive: 5.5%. For Cc1c2non([O-])c-2c(C)[n+](=O)[n+]1[O-], the inhibition was inactive: 15.1%. With Oc1ccccc1CNc1ccccn1 the inhibition was inactive: -21.3%. For CN1CCCC(OC(=O)C(c2ccccc2)c2ccccc2)C1 (stereo not drawn), the inhibition was inactive: -15%. In the case of CCOP(=O)(Nc1ccccc1)OCC, the inhibition is reported as inactive: 8.2%. For CC1CCN(C(=O)Oc2c(Cl)cc(Cl)c3cccnc23)CC1, the inhibition was inactive: 7.8%. For CC(=O)N1C2C3N(C(C)=O)C1C1N(C(C)=O)C(C(N1C(C)=O)N3C(C)=O)N2C(C)=O, the inhibition was inactive: 5.5%. With O=[N+]([O-])c1cccc2n[nH]nc12 the inhibition was inactive: 19.4%. With CCc1nc2c(n1)c1c(non1O)c1c2no[n+]1[O-] the inhibition was inactive: 20.5%.
